Experimental data taken from publication PMC12617405.

Molecular target: human non-muscle myosin-IIA heavy meromyosin (HMM NMIIA) (human)

- actin-activated steady-state ATPase activity of NM myosin-II (free phosphate, spectrophotometric), stimulation relative to Ac-β-actin (% of Ac-β-actin): 40
Substance: recombinant human arginylated-β-actin (natural protein)
